Compound activity as filed in PubChem BioAssay.
E-selectin induc – E-selectin induction in HUVECs, primary screen, imaging, HUVEC, immunofluorescence imaging, single point; activation, % at 7.58 µM; 260,000 tested, 0.37% active; P16581; normalized: neutral wells 0, TNF-alpha wells 100;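 active = mean E-selectin-positive cell signal at least 10% of the positive control, reached in at least 60% of replicates, without over 20% cell loss; inconclusive = no rule given, readout overlaps actives, possibly toxicity-flagged; inactive = the rest, including those meeting only one limit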
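Test system – human umbilical vein endothelial cells (HUVEC), E-selectin induction · Input – 3,000 HUVEC seeded per well · Buffer or medium – EGM-2, gelatin · Compound dosing – single-point compound dose · Detection – immunofluorescence imaging · Measure – percent E-selectin-positive cells · Controls – TNF-alpha high, DMSO low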
SIRT5 inh – SIRT5 desuccinylase inhibitors, primary screen, biochemical, fluorescence imaging, single point, set 5; NAD-dependent protein deacylase sirtuin-5, mitochondrial (Homo sapiens), Q9NXA8; Purified SirT5, succinyl-peptide AMC, trypsin-coupled fluorescence; inhibition, % at 15 µM; 330,000 tested, 1.1% active; AID 652115, 2013; in the data active = inhibition above about 15%; inconclusive = no clear call, values can overlap the other calls
RAD54 branch – inhibitors of human RAD54 branch migration, primary screen, biochemical, fluorescence, single point. RAD54 Holliday junction branch migration, FAM/BHQ fluorescence. inhibition, % at 10.4 µM. 360,000 tested, 0.14% active. AID 602329, 2012;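 active = mean normalized replicate activity at least 40 and at least half of replicates scoring 40 or more; inconclusive = only one of the two criteria met; inactive = mean below 40 and under half of replicates reaching 40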;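 also: inhibitors cause a drop in the FAM fluorescence signal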
RAD52 anneal inh – RAD52 DNA annealing inhibitors, primary screen, biochemical, FRET, single point, set 2. DNA repair protein RAD52 homolog (Homo sapiens), P43351. recombinant RAD52 DNA annealing, FRET fluorescence. inhibition, % at 18.7 µM. 360,000 tested, 0.46% active. AID 651710, 2012;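 active = every replicate showing at least 50% inhibition; inconclusive = mean inhibition at least 50% but not in every replicate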
Yeast UUG start-1 – modulators of start codon recognition fidelity in yeast; activity score, % at 18.7 µM; actives 0.13% (n = 350,000); S. cerevisiae UUG-firefly luciferase reporter, luminescence/redox ratio;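 active = replicate mean at a twofold rise or more, about +100% in these data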;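 note: firefly luciferase made from a UUG start codon reports start codon fidelity; reporter light over untreated wells divided by growth signal over untreated wells; some hits fall short of that in this replicate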
AF4-AF9 inh – inhibitors of AF4 peptide binding to AF9, primary screen, biochemical, AlphaScreen, biotin-AF4 peptide, FLAG-AF9, single point; Protein AF-9 (Homo sapiens), P42568; 350,000 tested, 0.47% active; AID 651704, 2012; inhibition, % at 10 µM;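 active = every replicate reaching a set inhibition limit, whatever the replicate mean, cut at about 25% in these data; inconclusive = mean inhibition reaches that limit but some replicates miss it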
Yeast UUG start-2 – enhancers of UUG start codon usage in yeast, dose response, S. cerevisiae, UUG firefly luciferase, cherry-pick, set 2; shares compounds with Yeast UUG start-1; luminescence, 4 h; 100% means double the DMSO signal; activation, % at 38 µM; 540 tested, under 10 active;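 active = signal increase whose fitted curve reaches an absolute level of 40 at a concentration under 10 µM; inactive = activity opposite to the expected increase, or the rest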
Alpha interfer – AlphaScreen signal interference counter-screen, dose response, artefact control, biochemical, cherry-picked samples, luminescence. shares compounds with AF4-AF9 inh. AC50, µM (titrated, usually from 12 µM). 530 tested, 45% active; cut-off not given, nearly all actives have AC50 up to about 14 µM
Hits are given with their value; - = inactive; ? = inconclusive; . = no result given. Only some compounds are listed: those with a hit (about 1.8% of all), similar ones and a draw of the others.

Chains of the proteins cited; added tags and fusions are not shown.
Protein AF-9 (Homo sapiens), P42568, UniProt P42568, whole entry, looked up: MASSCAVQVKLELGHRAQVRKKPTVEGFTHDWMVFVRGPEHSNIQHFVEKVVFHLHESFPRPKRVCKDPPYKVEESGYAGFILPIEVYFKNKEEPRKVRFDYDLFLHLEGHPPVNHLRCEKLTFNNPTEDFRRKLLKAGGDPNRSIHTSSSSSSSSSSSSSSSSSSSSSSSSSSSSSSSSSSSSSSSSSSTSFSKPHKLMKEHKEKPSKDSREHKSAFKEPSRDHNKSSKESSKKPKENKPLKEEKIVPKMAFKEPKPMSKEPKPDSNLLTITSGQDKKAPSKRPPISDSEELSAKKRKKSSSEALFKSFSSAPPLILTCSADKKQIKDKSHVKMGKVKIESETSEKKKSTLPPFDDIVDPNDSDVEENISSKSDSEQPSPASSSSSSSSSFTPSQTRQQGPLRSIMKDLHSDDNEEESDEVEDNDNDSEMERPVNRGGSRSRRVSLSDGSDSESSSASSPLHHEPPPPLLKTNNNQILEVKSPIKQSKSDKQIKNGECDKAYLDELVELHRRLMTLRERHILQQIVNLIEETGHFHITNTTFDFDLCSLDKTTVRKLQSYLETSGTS

SMILES | E-selectin induc | SIRT5 inh | RAD54 branch | RAD52 anneal inh | Yeast UUG start-1 | AF4-AF9 inh | Yeast UUG start-2 | others
CN1CCN(CC#CC(C)(O)C2CC3C=CC2C3)CC1 (stereo unspecified) | . | . | - | . | 166.3 | . | -
OC(CCN1CCCCC1)(c1ccccc1)C1C[C@@H]2C=C[C@H]1C2 (stereo partly specified) | - | - | - | - | - | - | .
Cc1ccc(N/C(N)=N/c2nc(CSc3nnc(C)s3)cc(=O)[nH]2)c(C)c1 | . | - | . | - | . | - | .
COc1ccc(N/C(N)=N/c2nc(CSc3nnc(C)s3)cc(=O)[nH]2)cc1 | . | - | - | - | 171.7 | - | -
CCOC(=O)NNC(=O)C12CC3CC(CC(C3)C1)C2 | - | - | - | - | 488.8 | - | -
CCNC(=O)[C@@H]1[C@@H](CO)[C@@H]2Cn3c(ccc(-c4ccccc4F)c3=O)[C@H]1N2CC1CC1 | - | - | - | - | - | - | .
CCN(CC)c1ccc(C=Nc2ccc(C#N)cc2)c(O)c1 | . | . | - | . | 465.7 | . | -
CNC[C@@H]1Oc2c(NC(=O)NC(C)C)cccc2C(=O)N([C@@H](C)CO)C[C@@H]1C | - | - | - | - | . | - | .
OCCN(CC#CC(O)(c1ccccc1)C1CCCCC1)CCO (stereo unspecified) | - | - | - | - | - | - | .
CC(C)C(O)(C#CCN1CCCC1)c1ccccc1 (stereo unspecified) | . | . | . | . | . | . | -
OC(C#CCN1CCCCCC1)(c1ccccc1)c1cccnc1 (stereo unspecified) | . | - | . | - | . | - | -
CCCN(CC#CC(O)(c1ccccc1)c1cccnc1)CCC (stereo unspecified) | . | - | . | - | . | - | -
OC(C#CCN1CCCC1)(c1ccccc1)c1cccnc1 (stereo unspecified) | - | . | - | - | 133.6 | - | -
C[C@@H]1CCCCO[C@H](CN(C)C(=O)NC2CCCCC2)[C@@H](C)CN([C@H](C)CO)C(=O)c2cc(NC(=O)Nc3cccc4ccccc34)ccc2O1 | - | - | - | - | - | - | .
C[C@@H]1CCCCO[C@@H](CN(C)Cc2ccc(Cl)c(Cl)c2)[C@H](C)CN([C@@H](C)CO)C(=O)c2cc(NS(=O)(=O)c3ccc(Cl)cc3)ccc2O1 | . | - | - | - | - | - | .
COc1ccc(NC(=O)N(C)C[C@H]2OCc3cn(nn3)CCCC(=O)N([C@@H](C)CO)C[C@H]2C)cc1 | - | - | - | - | . | - | .
C/C(=N\NC(=O)CC1N=C(Cc2ccccc2)NNC1=O)c1ccc(C)cc1 (stereo unspecified) | . | . | - | . | 372.5 | . | -
Cc1cc(-n2c(C)cc(C(=O)CSc3nncn3C)c2C)no1 | - | - | - | - | - | - | .
Cc1cc(-n2c(C)cc(C(=O)CSc3nncn3C(C)C)c2C)no1 | - | - | . | - | . | - | -
C/C=C/c1cnc2c(c1)C(=O)N([C@H](C)CO)C[C@@H](C)[C@H](CN(C)C(=O)C1CCC1)O2 | - | . | . | . | . | . | .
CCNC(=O)C[C@@H]1CC[C@H]2[C@@H](COC[C@H](O)CN2C(=O)c2cc(Cl)cc(Cl)c2)O1 | - | . | - | . | . | . | .
COCC#Cc1cnc2c(c1)C(=O)N([C@@H](C)CO)C[C@@H](C)[C@@H](CN(C)Cc1ccccc1F)O2 | - | - | - | - | - | - | .
O=C(NCC[C@H]1CC[C@@H](NC(=O)C2CCCCC2)[C@@H](CO)O1)c1cc(Cl)cc(Cl)c1 | - | - | - | - | - | - | .
CCOc1ccc(C=NC23CN4CN(CN(C4)C2)C3)cc1 | . | . | - | . | 462.0 | . | -
CCc1ccc(NC(=O)NCCN2CCCCC2)cc1 | . | - | - | - | 107.6 | - | -
SMILES | E-selectin induc | SIRT5 inh | RAD54 branch | RAD52 anneal inh | Yeast UUG start-1 | AF4-AF9 inh | Yeast UUG start-2 | others
CCc1ccc(N2CCN(CCNC(=O)Nc3ccccc3)CC2)cc1 | . | - | - | - | - | - | .
CCN(CC)c1ccc(N=Cc2ccc([N+](=O)[O-])o2)cc1 | - | 15.4 | . | - | . | 45.8 | . | Alpha interfer=-
N=C1C=CC(=C(c2ccc(N)cc2)c2ccc(N)cc2)C=C1 | 38.9 | - | . | - | . | 45.0 | . | Alpha interfer=10.9µM
Cc1ccc2c(c1)c1c3n2CCCN(Cc2ccccc2)C3CCC1 (stereo unspecified) | . | - | - | - | - | 31.8 | . | Alpha interfer=-
C[C@@H]1CN([C@H](C)CO)S(=O)(=O)c2ccc(C#Cc3ccccn3)cc2O[C@@H]1CN(C)C(=O)C1CC1 | - | - | - | - | - | - | .
COc1ccc2c3c([nH]c2c1)[C@H](CO)N(C(=O)Cc1ccccc1)CC31CN(C(=O)Cc2ccccc2)C1 | - | - | . | - | . | - | .
O=C(COc1cc(F)ccc1[N+](=O)[O-])Nc1ccc(N2CCOCC2)cc1 | - | - | . | - | . | - | .
O=C(COc1cc(F)ccc1[N+](=O)[O-])Nc1ccc(N2CCCCC2)cc1 | - | - | - | - | - | ? | . | Alpha interfer=-
CO[C@@H](CN(C)C(=O)c1ccccc1F)[C@@H](C)CN([C@@H](C)CO)S(=O)(=O)c1ccc(C)cc1 | - | - | - | - | . | - | .
CO[C@@H]1CN(C)C(=O)c2ccc(NC(=O)Nc3cccc(F)c3)cc2OC[C@H](C)NC[C@H]1C | - | - | - | - | . | - | .
Cc1cccc(N=NC(=S)NNc2cccc(C)c2)c1 | - | - | . | - | . | 35.6 | . | Alpha interfer=1.02µM
CCN(CC)c1ccc(CN2CCC(C(=O)NCc3ccc(C)cc3)CC2)cc1 | - | - | . | - | . | ? | . | Alpha interfer=-
C[C@H](CO)N1C[C@H](C)[C@H](CN(C)C(=O)Nc2cccc3ccccc23)Oc2ncc(C#Cc3ccc(C(F)(F)F)cc3)cc2C1=O | - | - | - | - | - | - | .
Cc1csc(Nc2ccccc2)[n+]1-c1ccccc1 | . | - | . | - | . | 27.8 | . | Alpha interfer=-
Cc1csc(Nc2ccccc2)[n+]1C | . | - | - | - | - | - | .
CCOc1ccc(Nc2ccc([N+](=O)[O-])c3nonc23)cc1 | - | - | - | - | - | 28.8 | . | Alpha interfer=-
O=[N+]([O-])c1ccc(Nc2ccccc2)c2nonc12 | - | - | - | - | - | - | .
c1ccc2c(Nc3ccc4c(c3)OCCO4)c3c(nc2c1)CCCC3 | . | - | . | - | . | - | . | Alpha interfer=-
CCN(CC)CCCNc1ccc2ncn3c4ccc(O)cc4c(=O)c1c23 | - | - | . | - | . | - | . | Alpha interfer=-
CCCN1C[C@H](C)[C@H](OC)CN(C)C(=O)c2cc(NC(=O)CC)ccc2OC[C@H]1C | - | . | . | . | . | . | .
CN1c2ccc(Br)cc2[C@H]2[C@H](CCN2C(=O)Cc2cccnc2)[C@@H]1CO | - | - | - | - | - | - | .
